Results as given in BindingDB's records for doi:10.1016/j.chembiol.2008.02.015 (University of Dundee, 2008).

Sequences of proteins named here, by UniProt entry; tags and fusion partners are left off. A change or cut given only in a name is not applied to a line headed by its entry.
UniProt Q13231: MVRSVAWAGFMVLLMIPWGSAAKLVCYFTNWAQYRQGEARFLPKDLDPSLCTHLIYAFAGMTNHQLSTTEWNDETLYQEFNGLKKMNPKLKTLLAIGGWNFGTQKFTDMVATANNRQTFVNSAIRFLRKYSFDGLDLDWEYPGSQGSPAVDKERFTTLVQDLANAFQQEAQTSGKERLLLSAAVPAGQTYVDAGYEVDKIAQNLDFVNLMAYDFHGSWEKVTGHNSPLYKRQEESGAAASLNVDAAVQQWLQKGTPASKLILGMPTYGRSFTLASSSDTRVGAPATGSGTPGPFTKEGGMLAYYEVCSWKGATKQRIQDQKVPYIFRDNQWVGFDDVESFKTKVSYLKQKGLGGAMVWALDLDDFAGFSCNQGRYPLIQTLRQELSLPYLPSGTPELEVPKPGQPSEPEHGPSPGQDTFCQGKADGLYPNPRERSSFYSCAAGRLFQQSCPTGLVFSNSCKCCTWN

Molecular target: Chitotriosidase-1 (Homo sapiens, UniProt Q13231)
Test: Inhibition Assay
Conditions: pH 5.5

Structure (SMILES): CNC(=O)NC(=N)NCCC[C@@H]1NC(=O)[C@@H](C)NC(=O)C[C@@H](C(=O)O)NC(=O)C[C@@H](C(=O)O)NC(=O)[C@H](Cc2ccccc2)N(C)C1=O [(2R,5S,8S,11S,15S)-8-benzyl-2,7-dimethyl-5-[3-({[(methylcarbamoyl)amino]methanimidoyl}amino)propyl]-3,6,9,13,17-pentaoxo-1,4,7,10,14-pentaazacycloheptadecane-11,15-dicarboxylic acid]
- IC50: 4.5 µM
